Test results taken from ChEMBL document CHEMBL4118277, “Selective inhibition of monoamine oxidase A by chelerythrine, an isoquinoline alkaloid” (Bioorg Med Chem Lett, 2018).

Chains of the proteins cited; added tags and fusions are not shown.
UniProt P21397, whole entry: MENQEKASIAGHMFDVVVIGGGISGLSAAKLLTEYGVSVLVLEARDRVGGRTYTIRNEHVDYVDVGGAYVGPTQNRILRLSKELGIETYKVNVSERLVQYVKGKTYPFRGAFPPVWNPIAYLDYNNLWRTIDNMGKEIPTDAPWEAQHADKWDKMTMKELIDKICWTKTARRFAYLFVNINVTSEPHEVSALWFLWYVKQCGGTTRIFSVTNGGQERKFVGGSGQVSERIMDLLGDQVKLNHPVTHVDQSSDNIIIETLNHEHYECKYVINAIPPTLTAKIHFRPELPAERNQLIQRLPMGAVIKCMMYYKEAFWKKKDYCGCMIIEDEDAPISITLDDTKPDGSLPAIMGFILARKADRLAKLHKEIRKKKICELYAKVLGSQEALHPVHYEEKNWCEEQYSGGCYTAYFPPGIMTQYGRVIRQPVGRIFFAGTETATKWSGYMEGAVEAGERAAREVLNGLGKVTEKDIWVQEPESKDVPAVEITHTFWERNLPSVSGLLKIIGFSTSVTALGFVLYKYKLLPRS

Target: Amine oxidase [flavin-containing] A (Homo sapiens, UniProt P21397)
Test: Competitive inhibition of recombinant human MAO-A using kynuramine as substrate by Lineweaver-Burk plot analysis

In the case of `c1ccc2c(c1)[nH]c1cnccc12` [NORHARMANE], the Ki is reported as 260 nM.
